Results: patent publication US6906033

Tests used:
[1] = molecular target: human factor XIIa (human) (UniProt P00748); assay: enzyme inhibition
[2] = molecular target: human plasma kallikrein (human) (UniProt P03952); assay: enzyme inhibition

| Substance | Ki [1] [µM] | Ki [2] [µM] |
| --- | --- | --- |
| Aprotinin | 5 | 0.02 |
| Aprotinin R15, S42 | 3.98 | 0.00091 |
